Biological target: hDAT (Homo sapiens, UniProt Q01959)
Experiment: Photoaffinity labeling of DAT with
Assay type: binding
Details: 10 μM blocker, 10 nM (±)-[125I]-6

Sequences of proteins named here, by UniProt entry; tags and fusion partners are left off.
UniProt Q01959, whole entry: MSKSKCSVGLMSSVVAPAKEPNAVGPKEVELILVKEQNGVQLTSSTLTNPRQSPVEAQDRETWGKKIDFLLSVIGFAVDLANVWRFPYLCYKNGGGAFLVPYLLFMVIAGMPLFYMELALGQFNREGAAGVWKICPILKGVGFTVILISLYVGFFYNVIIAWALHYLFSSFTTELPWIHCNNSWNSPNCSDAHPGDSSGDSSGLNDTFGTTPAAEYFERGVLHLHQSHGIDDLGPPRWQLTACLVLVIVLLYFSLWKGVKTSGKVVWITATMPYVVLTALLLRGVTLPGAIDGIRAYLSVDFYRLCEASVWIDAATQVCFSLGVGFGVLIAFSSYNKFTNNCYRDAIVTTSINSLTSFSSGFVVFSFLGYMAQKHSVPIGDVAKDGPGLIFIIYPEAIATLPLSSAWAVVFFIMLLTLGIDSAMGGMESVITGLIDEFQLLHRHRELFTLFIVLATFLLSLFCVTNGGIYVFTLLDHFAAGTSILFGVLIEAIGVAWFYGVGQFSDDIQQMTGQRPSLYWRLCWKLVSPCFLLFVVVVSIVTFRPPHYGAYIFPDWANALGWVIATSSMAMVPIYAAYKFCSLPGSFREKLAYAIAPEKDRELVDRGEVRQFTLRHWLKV

(−)-cocaine
block of incorporation of photoprobe (±)-[125I]-6 into DAT: > 90%

From publication PMC3469269 (ACS medicinal chemistry letters, 2012)
